Where two headings read alike, the source gives them in different places.
Tested on: Fab
Settings: Capto L, compared to PBS control

Row | Compound | Relative remaining SBC (%) (24 h incubation in SIP solution, 90' incubation with Fab sample, listed as 100 mM Peracetic acid) | Relative remaining SBC (%) (4 h incubation in SIP solution, 10' incubation with Fab sample)
1 | CC(=O)OO [0.1M Peracetic acid, peracetic acid] | 105% | –
2 | CC(=O)OO [500 mM Peracetic acid, Peracetic acid] | – | 106%
